Screening data as filed in PubChem BioAssay.
Shown are actives, neighbours in structure and some others; about 2.1% of the full set was active somewhere.
Nrf2 inh: Nrf2 pathway inhibition. A549 ARE-Fluc reporter, luciferase luminescence, 18-24 h. Potency, µM (doses to about 46 µM), without a hit: top-dose activity change, negative = inhibition, usual class: inhibitors. actives 2.1% (n = 360,000); also: potency is read from the fitted curve at half-maximal effect; % is scaled to controls: 0 for no effect and ±100 for the full control effect; nearly all actives have a fitted effect of over 60% in size
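Quantitative HTS in A549 cells stably bearing an antioxidant response element-firefly luciferase construct. Inhibition of Nrf2-driven transcription was scored by luminescence after 18-24 h of compound exposure at 37 °C.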
GRP78 ERSR act: induces the endoplasmic reticulum stress response in human glioma cells; U87-MG GRP78 promoter luciferase reporter, 16 h; Potency, µM, inactives show at the top dose activation, actives largely listed as activators; actives 0.02% (n = 420,000); AID 602332; also: potency is read from the fitted curve at half-maximal effect; series mostly up to about 76 µM; % of control where 0% means no effect; nearly all actives have a fitted effect of over 35% in size
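ERSR induction read as luciferase luminescence (Bright-Glo, 10 min at room temperature) in stably transfected human U87-MG glioma cells exposed to compounds for 16 h, using GRP78 as sensor.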
TSG101-PTAP inh: blocks PTAP/TSG101 interaction to inhibit HIV-1 budding. Q99816. Fluorescence polarization, FITC-PTAP peptide / Tsg101 binding. Potency, µM (doses to about 115 µM), inactives show top-dose activity change, negative = inhibition, most hits filed as inhibitors. 340,000 tested, under 10 active; active = well fitted inhibition curve with a large enough effect in the main read-out, with a control signal flat, not every such curve was filed as active; inconclusive = small, poorly fitted or top-dose-only effect, or effect the other way, or a change in a side signal; inactive = no such curve, though single readings can be large or run the other way; also: potency is read from the fitted curve at half-maximal effect; % of control where 0% means no effect
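Fluorescence polarization binding of Tsg101 binding domain (10 uM final) to FITC-labeled PTAP peptide (50 nM final) in HEPES pH 7.5 buffer with NaCl, Tween 20, EDTA, TCEP. Compounds added before peptide; binding 20 min at RT.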
Nrf2 activator: activates Nrf2 signaling. actives 0.31% (n = 410,000). AREc32 ARE-luciferase reporter (MCF7-derived line), luminescence, 24 h. AID 624171. Potency, µM (top dose mostly 46.1 µM), for the others: top-dose activation, actives largely listed as activators; also: potency is read from the fitted curve at half-maximal effect; % of control where 0% means no effect; nearly all actives have a fitted effect of over 65% in size
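AREc32_Fluc, 1000 cells/well, OPTI-MEM + 5% FBS, o/n 37 deg C 5% CO2; 23 nL cpd by pin tool, 24 hr; Steady-Glo 30 min RT, luminescence.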
miR-21 reporter: miR-21 reporter, rising signal. HeLa miR-21 FLuc reporter, luciferase, 48 h. Potency, µM (highest dose often 38.3 µM), for the others: at the highest dose reporter change, positive = more light. 340,000 tested, under 10 active. AID 2288; active = well fitted rising curve with a large enough effect; inconclusive = small, poorly fitted or top-dose-only effect; inactive = no such curve, though single readings can be large or run the other way;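 further: % of control where 0% means no effect; miR-21 action dims this reporter so a rising signal means less miR-21 action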
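HeLa miR-21-FLuc reporter line, endogenous miR-21; 2000 cells/well in DMEM/10% FBS; compound titration up to ~40uM final, 48 h, 37 degree Celsius; luciferase detection reagent, 15 min lysis, CCD luminescence.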
A549 tox: A549 cytotoxicity, counter-screen for Nrf2 inhibitors; A549 ARE-Fluc cells, CellTiter-Fluor viability, 18-24 h; actives 0.16% (n = 390,000); Potency, µM (top dose mostly 46 µM), for the others: top-dose activity change, negative = cytotoxicity, hits mostly inhibitors; also: potency is read from the fitted curve at half-maximal effect; % is scaled to controls: 0 for no effect and ±100 for the full control effect
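Cytotoxicity counterscreen: CellTiter-Fluor fluorescence was measured in A549 ARE_Fluc cells after 18-24 h of compound exposure in a concentration series. The subsequent BugLite luminescent read reports ARE-luciferase activity.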
* hit, by the source's call; ? = inconclusive; · = no result; [ ] = remark or other dose. Unless noted, calls follow the shape of the dose curve; as a rule, active = well fitted curve in the direction sought with a large enough effect; inconclusive = small, poorly fitted or top-dose-only effect, or another doubt; inactive = no such curve, though single readings can be large; an effect the other way counts as inactive or inconclusive.

item	compound	Nrf2 inh	GRP78 ERSR act	TSG101-PTAP inh	Nrf2 activator	miR-21 reporter	A549 tox
1	CCc1ccc(/C=C/c2c([N+](=O)[O-])c(=O)n(C)c(=O)n2C)cc1	13µM*	-12%	-5%	?	?	?
2	CC1CC(=O)c2c(cc3c(-c4c(O)cc(O)c5c(O)c6c(cc45)OC(C)CC6=O)c(O)cc(O)c3c2O)O1 (configuration not stated)	12µM*	?	?	-1%	?	?
3	O=C1CC(c2ccccc2)Oc2cc(O)cc(O)c21 (configuration not stated)	3%	4%	0%	1%	-59%	-1%
4	Cc1ccc(NC(=O)NC(=O)CN2CCN(c3ccc(O)cc3)CC2)c(C)c1	23µM*	-6%	-2%	0%	4%	-14%
5	CC(C)(C)NC(=O)NC(=O)CN1CCN(c2ccccc2)CC1	-18%	-4%	-2%	-1%	-4%	-4%
6	CC(C)(C)NC(=O)NC(=O)CN1CCN(c2ccc(O)cc2)CC1	21µM*	-4%	-2%	0%	18%	-21%
7	CN(C)c1ccc(/C=C2/CCCc3c2nc2ccccc2c3C(=O)O)cc1	·	2%	·	·	·	·
8	COc1cc(CN2CCOc3ccc(CN4CCC(O)(c5cccnc5)CC4)cc3C2)ccc1F	·	-3%	·	·	·	·
9	CSCCC(NC(=O)[C@H](Cc1c[nH]c2ccccc12)NC(=O)CNC(=O)[C@H](CCSC)NC(=O)[C@H](Cc1ccc(OS(=O)(=O)O)cc1)NC(=O)[C@@H](N)CC(=O)O)C(=O)N[C@@H](CC(=O)O)C(=O)N[C@@H](Cc1ccccc1)C(N)=O (some centres not stated)	·	-2%	·	·	·	·
10	O=C(NCC1CCCO1)NC1(C(F)(F)F)Oc2ccccc2O1 (configuration not stated)	?	7%	-5%	16µM*	-30%	?
11	O=C(NCC1CCCO1)c1ccccc1 (configuration not stated)	-8%	-2%	-7%	-1%	-7%	-7%
12	Cc1cn([C@@H](CCCCNC(=O)OC(C)(C)C)C(=O)NCCCCCCCCCCC(=O)N2CCN(C(=O)OC(C)(C)C)CC2)nn1	10µM*	-8%	-4%	-1%	·	16µM*
13	O=C(NCCNc1ccc([N+](=O)[O-])cc1C(F)(F)F)c1ccc(F)cc1	21µM*	-2%	-1%	2%	16%	?
14	COc1ccc(NC(=O)c2cc3ccc(O)cc3o/c2=N\O)cc1	2.1µM*	-1%	-2%	3%[9.22 µM]	7%	?
15	CCOc1cccc(/C=C2\NC(=S)N(c3ccccc3)C2=O)c1O	0%	-1%	-4%	11µM*	-32%	-3%
16	Cc1ccc(SCCC(=O)N/N=C/c2ccncc2)cc1	15µM*	-3%	-3%	0%	-2%	6%
17	Cc1ccc(/C=N/NC(=O)CCSc2ccccc2)cc1	-4%	2%	-3%	4%	-18%	-4%
18	CC(=O)OCC(=O)[C@@]1(O)[C@H](C)C[C@H]2C3C[C@H](F)C4=CC(=O)C=CC4(C)C3[C@@H](O)CC21C (some centres not stated)	·	-2%	·	·	·	·
19	COc1ccc(NC(=S)N=Nc2c(O)[nH]c3ccccc23)cc1	9.2µM*	-3%	0%	18%	17%	?
20	Cc1ccc(NC(=S)N=Nc2c(O)[nH]c3ccccc23)cc1	-20%	3%	-6%	9%	6%	-11%

Sorted by heavy-atom count (low to high): some entries from above.
item	compound	Nrf2 inh	GRP78 ERSR act	TSG101-PTAP inh	Nrf2 activator	miR-21 reporter	A549 tox
20	Cc1ccc(NC(=S)N=Nc2c(O)[nH]c3ccccc23)cc1	-20%	3%	-6%	9%	6%	-11%
14	COc1ccc(NC(=O)c2cc3ccc(O)cc3o/c2=N\O)cc1	2.1µM*	-1%	-2%	3%[9.22 µM]	7%	?
18	CC(=O)OCC(=O)[C@@]1(O)[C@H](C)C[C@H]2C3C[C@H](F)C4=CC(=O)C=CC4(C)C3[C@@H](O)CC21C (some centres not stated)	·	-2%	·	·	·	·

(next part)
item	compound	Nrf2 inh	GRP78 ERSR act	TSG101-PTAP inh	Nrf2 activator	miR-21 reporter	A549 tox
21	Cc1ccc(-n2ncc3c(=O)n(-c4ccc(C)c(C)c4)c(C)nc32)cc1	-3%	-2%	-4%	0%	-9%	-8%
22	Cc1ccc(-n2c(C)nc3c(cnn3-c3ccc(F)cc3)c2=O)cc1	15µM*	4%	-6%	-1%	-5%	-11%
23	CCc1cccc(-n2c(C)nc3c(cnn3-c3ccc(Cl)cc3)c2=O)c1	16µM*	1%	·	-1%	12%	0%
24	CCCSc1nc2c(cnn2-c2ccccc2)c(=O)[nH]1	?	-2%	-1%	0%	-13%	-5%
25	CCCSc1nc2c(cnn2-c2ccc(C)cc2)c(=O)[nH]1	18µM*	-4%	-3%	1%	-14%	-22%
26	Cc1ccc2c(c1)CN(CCNC(=O)c1cccc(Cn3cccn3)c1)CC(C)O2 (configuration not stated)	·	-1%	·	·	·	·
27	Cc1ccc(C(=O)NCCc2nnc3n2CCN(C(=O)c2ccnc(Cl)c2)CC3)cc1	·	-5%	·	·	·	·
28	Cc1ccc(C(=O)Nc2cccc(-c3nc(CNC(=O)C4(C)CC4)c(C)o3)c2)s1	·	-3%	·	·	·	·
29	N#Cc1ccccc1Cn1cc(/C=C/[N+](=O)[O-])c2ccccc21	?	-14%	0%	-3%	?	23µM*
30	CCC(=O)Nc1c(S(=O)(=O)c2ccccc2)c2nc3ccccc3nc2n1C(C)c1ccccc1 (configuration not stated)	18µM*	-3%	6%	0%	-4%	-24%

Some of the entries so far, in transposed form:
(22) Cc1ccc(-n2c(C)nc3c(cnn3-c3ccc(F)cc3)c2=O)cc1
(23) CCc1cccc(-n2c(C)nc3c(cnn3-c3ccc(Cl)cc3)c2=O)c1

assay / entry | 22 | 23
Nrf2 inh | 15µM* | 16µM*
GRP78 ERSR act | 4% | 1%
TSG101-PTAP inh | -6% | ·
Nrf2 activator | -1% | -1%
miR-21 reporter | -5% | 12%
A549 tox | -11% | 0%

(list continues)
item	compound	Nrf2 inh	GRP78 ERSR act	TSG101-PTAP inh	Nrf2 activator	miR-21 reporter	A549 tox
31	COc1cccc(CN2CCc3nnc(CCc4ccccc4)n3CC2)c1OC	·	0%	·	·	·	·
32	COc1ccc(-c2nc3c4c(ncn3n2)-c2ccccc2CC42CCCC2)cc1	-9%	-5%	0%	-1%	0%	0%
33	Oc1cccc(-c2nc3c4c(ncn3n2)-c2ccccc2CC42CCCC2)c1	23µM*	-13%	·	-2%	?	?
34	COc1ccccc1CN1CCC2(CC1)c1ccccc1[C@@H](NC(=O)c1ccco1)[C@@H]2OC	·	-4%	·	·	·	·
35	Cc1cc(Cl)ccc1OC(C)C(=O)N1CCCN(C(=O)C(C)Oc2ccc(Cl)cc2C)CC1 (configuration not stated)	16µM*	-5%	-5%	5%	25%	?
36	O=c1cc(-c2ccccc2Cl)oc2c([N+](=O)[O-])c(O)cc(O)c12	13µM*	-6%	-13%	-3%	?	?
37	O=c1cc(-c2ccccc2Cl)oc2ccc([N+](=O)[O-])c(O)c12	?	-5%	-5%	0%	-11%	?
38	Cc1ccc(Nc2nc(C)c(CCC(C)C)c(=O)[nH]2)cc1	-28%	8%	0%	-1%	-8%	-11%
39	Cc1nc(Nc2ccc(F)cc2)[nH]c(=O)c1CCC(C)C	15µM*	-2%	-8%	0%	-3%	?
40	COC(=O)c1c(OCc2cccnc2)cc(=O)n2c1CCN(C(=O)c1c3c(nn1C)CCCC3)CC2	·	2%	·	·	·	·
41	CCN(C(=O)COC(=O)c1cccnc1Nc1cccc(C(F)(F)F)c1)C1CCS(=O)(=O)C1 (configuration not stated)	5%	1%	0%	11µM*	-26%	2%
42	O=C(C[n+]1ccccc1Cl)c1cccc([N+](=O)[O-])c1	·	-3%	·	·	·	·
